SMILES strings stand for the structures. Bounds are passed on as bounds.

Sequences of proteins named here, by UniProt entry; tags and fusion partners are left off.
UniProt Q99683, whole entry: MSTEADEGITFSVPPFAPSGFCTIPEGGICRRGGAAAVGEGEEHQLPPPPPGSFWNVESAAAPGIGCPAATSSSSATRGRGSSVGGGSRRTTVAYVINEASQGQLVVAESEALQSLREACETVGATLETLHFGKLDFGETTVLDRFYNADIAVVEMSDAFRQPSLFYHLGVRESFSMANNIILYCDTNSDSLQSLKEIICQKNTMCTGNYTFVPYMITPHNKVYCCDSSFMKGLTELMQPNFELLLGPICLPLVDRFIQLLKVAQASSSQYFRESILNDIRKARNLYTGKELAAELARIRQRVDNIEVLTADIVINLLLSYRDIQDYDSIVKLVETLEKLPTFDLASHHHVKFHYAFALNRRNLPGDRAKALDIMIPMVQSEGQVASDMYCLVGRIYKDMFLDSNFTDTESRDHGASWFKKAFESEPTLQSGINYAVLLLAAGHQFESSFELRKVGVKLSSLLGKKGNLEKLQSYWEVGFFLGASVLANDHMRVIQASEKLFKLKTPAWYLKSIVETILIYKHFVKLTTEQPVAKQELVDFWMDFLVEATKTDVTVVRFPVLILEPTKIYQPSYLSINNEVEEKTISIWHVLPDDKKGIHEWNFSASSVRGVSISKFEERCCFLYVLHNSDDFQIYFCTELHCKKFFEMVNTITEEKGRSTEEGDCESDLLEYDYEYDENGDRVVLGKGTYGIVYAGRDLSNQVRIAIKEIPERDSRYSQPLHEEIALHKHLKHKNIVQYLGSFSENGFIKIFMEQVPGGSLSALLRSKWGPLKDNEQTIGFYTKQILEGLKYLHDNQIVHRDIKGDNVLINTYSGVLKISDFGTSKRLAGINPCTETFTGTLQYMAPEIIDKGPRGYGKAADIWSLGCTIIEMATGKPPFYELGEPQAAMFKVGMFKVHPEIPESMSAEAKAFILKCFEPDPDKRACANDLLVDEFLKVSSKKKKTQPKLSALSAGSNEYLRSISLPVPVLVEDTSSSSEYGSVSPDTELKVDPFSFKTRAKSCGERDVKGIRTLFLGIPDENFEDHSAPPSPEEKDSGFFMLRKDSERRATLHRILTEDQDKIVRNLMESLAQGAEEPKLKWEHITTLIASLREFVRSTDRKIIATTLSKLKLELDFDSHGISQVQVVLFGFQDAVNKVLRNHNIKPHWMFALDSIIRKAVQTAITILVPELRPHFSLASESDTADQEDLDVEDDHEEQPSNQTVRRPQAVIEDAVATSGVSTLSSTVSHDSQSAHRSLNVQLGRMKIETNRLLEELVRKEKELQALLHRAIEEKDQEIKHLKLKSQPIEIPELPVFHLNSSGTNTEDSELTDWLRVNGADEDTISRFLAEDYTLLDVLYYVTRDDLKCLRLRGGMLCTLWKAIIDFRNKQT

The assay concerns the target Recombinant human ASK1 kinase (Homo sapiens, UniProt Q99683). Description: ASK1 kinase HTRF assay (HTRF KinEASE-STK, phosphorylation of biotinylated peptide substrate). The note with it: 3 nM ASK1 kinase, 1 uM STK-substrate-biotin, HTRF detection.
The EC50 is the concentration needed to bring the measured effect to its halfway point. `CC(C)n1cnnc1-c1cccc(NC(=O)Nc2nc3ccccc3s2)n1`: the EC50 was less than 50 nM.
As to `CC(C)n1cnnc1-c1cccc(NC(=O)Nc2ccc(S(C)(=O)=O)cn2)n1`, the half-maximal effective concentration (EC50) is less than 50 nM.
Regarding `CC(C)n1cnnc1-c1cccc(NC(=O)Nc2cc(C(F)(F)F)ccn2)n1`, the half-maximal effective concentration (EC50) was less than 50 nM.

Source of the values: patent US11427556B2, “Urea derivatives as inhibitors of ASK1” (Hepagene Therapeutics (HK) Limited, priority 2017, dated 2022).
